Assay results from PubChem BioAssay AID743269 (The Scripps Research Institute Molecular Screening Center, 2014).
The entries are a selection whose mix differs from that of the whole data set. Calls of active or inactive are those of the source.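 The calls were made as follows: active = inhibition above the screen-wide mean plus 3 SD (cut at about 13% in these data); inactive = the rest.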

Test system: HIV-1 integrase (with human LEDGF/p75)
Assay: blockers of LEDGF/p75-dependent integrase strand transfer – biochemical, TR-FRET, high throughput, primary screen (AID 743269);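 also: signal is the Cy5 over europium emission ratio at 671 and 618 nm; 0% = plate median of compound wells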
Conditions: TR-FRET IN-LEDGF/p75 DNA integration, Eu/Cy5; at 3.7 µM; active compounds read high

| Structure (SMILES) | inhibition |
| --- | --- |
| CCC(=O)N(c1ccccc1)C1(COC)CCN(CCn2nnn(CC)c2=O)CC1 | inactive: -1.47% |
| CCC(=O)N(c1ccccc1)C1(COC)CCN(CCc2cccs2)CC1 | inactive: 1.87% |
